Data on one compound can be found in PMC9476189 (ACS Omega, 2022).

Sequences of proteins named here, by UniProt entry; tags and fusion partners are left off. Residues count along the entry.
UniProt P22303, 32-614: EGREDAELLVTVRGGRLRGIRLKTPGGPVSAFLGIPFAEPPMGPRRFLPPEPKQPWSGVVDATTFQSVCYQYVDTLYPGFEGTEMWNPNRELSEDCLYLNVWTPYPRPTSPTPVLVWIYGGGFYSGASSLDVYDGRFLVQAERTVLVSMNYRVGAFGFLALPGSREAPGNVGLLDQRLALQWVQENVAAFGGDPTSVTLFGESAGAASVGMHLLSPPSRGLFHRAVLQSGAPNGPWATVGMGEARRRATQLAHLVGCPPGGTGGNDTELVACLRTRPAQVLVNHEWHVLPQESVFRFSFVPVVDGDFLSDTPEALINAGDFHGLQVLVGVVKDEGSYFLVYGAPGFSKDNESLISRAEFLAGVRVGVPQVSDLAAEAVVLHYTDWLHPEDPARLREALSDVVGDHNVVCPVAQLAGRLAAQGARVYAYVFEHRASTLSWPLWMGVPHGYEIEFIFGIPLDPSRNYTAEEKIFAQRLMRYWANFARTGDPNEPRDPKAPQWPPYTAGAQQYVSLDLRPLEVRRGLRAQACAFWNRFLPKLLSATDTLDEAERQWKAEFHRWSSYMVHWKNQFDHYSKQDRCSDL

This test deals with AChE (Homo sapiens, UniProt P22303). Particulars: mean ± SEM, triplicate.

Marks after values point to notes of the source that are not given here.

For `CNC(=O)Oc1ccc2c(c1)[C@]1(C)CCN(C)[C@@H]1N2C` [Eserine, reference compound], the “AChE inhibition, inhibition (%) at 0.5 mM” value was 91.27±1.17^a %.
